Reference: patent US20110319274A1, “Identification of Compounds Modifying a Cellular Response” (Carlsberg A/S, priority 2004, published 2011)

By UniProt entry, the sequences of proteins in these tests, tags left out.
UniProt P32245, whole entry: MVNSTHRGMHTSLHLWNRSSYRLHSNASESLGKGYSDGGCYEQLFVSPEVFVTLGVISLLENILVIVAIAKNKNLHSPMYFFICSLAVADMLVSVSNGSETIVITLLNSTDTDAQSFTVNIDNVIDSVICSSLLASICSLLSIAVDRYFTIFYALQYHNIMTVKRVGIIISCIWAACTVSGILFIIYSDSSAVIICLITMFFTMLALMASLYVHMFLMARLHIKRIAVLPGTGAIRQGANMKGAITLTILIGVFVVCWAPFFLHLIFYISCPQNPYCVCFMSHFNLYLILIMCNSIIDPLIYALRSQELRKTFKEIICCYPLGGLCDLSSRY

Biological target: T1, MC4R (melanocortin4 receptor) (Homo sapiens, UniProt P32245)
T1 construct: PCR amplified MC4R encoding DNA is introduced into the gateway Entry Vector (pENTR); expressed in transfected cells; host or cells: Hek293
Assay: Gs coupled receptor (MC4R) agonist screening, Cre-YFP reporter assay detected using a fluorescence microscope
Format: cell-based
Details: HEK293 and U2OS cells expressing MC4; FIG. 13
Text: A 732 bp of EYFP fragment from pd2EYFP-1 (Clontech Cat.#6912-1) is ligated to a 3.5 kb fragment from pCRE-d2EGFP (Clontech Cat #6034-1). Both fragments are excised from the two vectors by a common restriction enzyme digestion.
PCR amplified MC4R encoding DNA is introduced into the gateway Entry Vector (pENTR) by topoisomarase-mediated ligation. The DNA is subsequently recombined into Destination Vector pDEST12.2. (pDEST12.2MC4R)
Hek293 cells are co-transfected with pDEST1.2.2MC4R and Cre-YFP (using standard procedure for Fugene6 transfection) and cells are cultured on PEGA beads displaying adhesion peptide and respectively 1) Negative control (PEGA beads with adhesion peptide) and 2) Positive control (PEGA beads of example 2) by mixing appr. […] The level of CRE-YFP expression was detected using a Zeiss Axiovert 200M microscope equipped with appropriate filters for YFP detection (Excitation 500/20 nm, Dicroic 515 LP EM 535/30).
Hek293 cells were co-transfected with pDEST1.2.2MC4R and pCRE-d2EYFP and put under G418 selection for 3 weeks. Hereafter cells were FACSorted (Fluorescence Activated Bead sorted) for high YFP expression after stimulation with aMSH 100 nM and 0.4 uM TSA (Tricostatin A) for 20 hrs. […]
The LabTek one well chambered coverglass was placed on a Zeiss Axiovert 200 fluorescence microscope equipped with filters optimal for YFP fluorescence. […]

Substance: Ac-Ser-Tyr-Ser-Met-Glu-His-Phe-Arg-Trp-Gly-Lys-Pro-Val-Gly-OH [aMSH]
- CRE-YFP transcription: induced CRE-YFP transcription
